What all share (experiment): fluorescence polarisation
In general terms: Fluorescence polarisation rises when a labelled molecule tumbles more slowly, as on binding a larger partner.

Test [1] addresses T1, Bcl-w (c-myc-tagged, without the C-terminal trans-membrane region) (human).
T1 chain: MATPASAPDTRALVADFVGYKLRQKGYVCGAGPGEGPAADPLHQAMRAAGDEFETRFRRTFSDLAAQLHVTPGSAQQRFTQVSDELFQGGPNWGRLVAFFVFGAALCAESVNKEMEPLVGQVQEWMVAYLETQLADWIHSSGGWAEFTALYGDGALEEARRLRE

The target of test [2] is Bcl-xL (c-myc-tagged, without the C-terminal trans-membrane region) (human).
Test [3] addresses Mcl-1 (c-myc-tagged, without the N-terminal domain and the C-terminal trans-membrane region) (human).
Test [4] concerns the target T2, Bfl-1 (c-myc-tagged, without the C-terminal trans-membrane region) (human).
T2 sequence (Q16548 whole entry, looked up): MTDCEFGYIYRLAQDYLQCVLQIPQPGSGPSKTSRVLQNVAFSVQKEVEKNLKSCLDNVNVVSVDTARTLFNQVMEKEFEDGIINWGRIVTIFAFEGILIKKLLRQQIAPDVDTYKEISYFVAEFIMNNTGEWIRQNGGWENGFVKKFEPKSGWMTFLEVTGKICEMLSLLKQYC

Test [5] has as its target Bcl-2 (c-myc-tagged, without the C-terminal trans-membrane region) (human).

For two molecules, Kd results are on record in paper PMC4168798 (ACS Chemical Biology, 2014).

For orientation: Kd means the constant that tells how readily two partners part at equilibrium. Consider RPEIWMTQGLRRLGDEINAYYAR (designed binder, N-terminal 5/6-fluorescein amidite; C-terminal amidation) [MS1, N-terminal fluorescein], for which the Kd in test [1] was 1300 nM; in test [2] it was 1600 nM.
With RPEIWLTQSLQRLGDEINAYYAR (designed binder, N-terminal 5/6-fluorescein amidite; C-terminal amidation) [MS2, N-terminal fluorescein], the Kd stood at 250 nM in test [1]; 1.5 nM in test [3]; 3100 nM in test [4]; 1400 nM in test [2]; 6200 nM in test [5].
